{"source": "patent US20260375146A1", "about": "“COMBINATION OF COMPOUNDS FOR DEVELOPING IN VITRO MODELS OF THE BLOOD-BRAIN BARRIER” (HUN-REN SZEGEDI BIOLÓGIAI KUTATÓKÖZPONT, priority 2023, published 2026)", "tested_on": "efflux pumps", "assay": "Efflux pump activity: bidirectional permeability of rhodamine 123 across co-culture model", "format": "in vitro ADME, human", "protocol": "After 1 h, samples from both compartments were collected and the mean fluorescence of rhodamine 123 was measured using a Fluorolog 3 spectrofluorometer (Horiba Jobin Yvon) with excitation/emission wavelengths 492/526 nm. Concentrations of rhodamine 123 were determined by standard calibration curves. Apparent permeability coefficients (P.) were calculated as described above."}
{"substance": "rhodamine 123", "values": [{"measurement": "efflux ratio of rhodamine 123", "setting": "model treated with cAMP+Ro+LiCl+A83-01 48 h, rhodamine 123 10 μM, 1 h", "value": 2.1}, {"measurement": "efflux ratio of rhodamine 123 with verapamil", "setting": "model treated with cAMP+Ro+LiCl+A83-01, verapamil 2 μM, efflux pump inhibitor, 60 min, 10 µM", "value": 0.98}]}
